The assay concerns the target JAK2 (Homo sapiens, UniProt O60674). Briefly: Caliper Mobility Shift Assay, kinase inhibition. In kind it is biochemical.

Protein sequences, listed by entry. Tags and fused reporters are not part of them.
UniProt O60674, whole entry, species assumed: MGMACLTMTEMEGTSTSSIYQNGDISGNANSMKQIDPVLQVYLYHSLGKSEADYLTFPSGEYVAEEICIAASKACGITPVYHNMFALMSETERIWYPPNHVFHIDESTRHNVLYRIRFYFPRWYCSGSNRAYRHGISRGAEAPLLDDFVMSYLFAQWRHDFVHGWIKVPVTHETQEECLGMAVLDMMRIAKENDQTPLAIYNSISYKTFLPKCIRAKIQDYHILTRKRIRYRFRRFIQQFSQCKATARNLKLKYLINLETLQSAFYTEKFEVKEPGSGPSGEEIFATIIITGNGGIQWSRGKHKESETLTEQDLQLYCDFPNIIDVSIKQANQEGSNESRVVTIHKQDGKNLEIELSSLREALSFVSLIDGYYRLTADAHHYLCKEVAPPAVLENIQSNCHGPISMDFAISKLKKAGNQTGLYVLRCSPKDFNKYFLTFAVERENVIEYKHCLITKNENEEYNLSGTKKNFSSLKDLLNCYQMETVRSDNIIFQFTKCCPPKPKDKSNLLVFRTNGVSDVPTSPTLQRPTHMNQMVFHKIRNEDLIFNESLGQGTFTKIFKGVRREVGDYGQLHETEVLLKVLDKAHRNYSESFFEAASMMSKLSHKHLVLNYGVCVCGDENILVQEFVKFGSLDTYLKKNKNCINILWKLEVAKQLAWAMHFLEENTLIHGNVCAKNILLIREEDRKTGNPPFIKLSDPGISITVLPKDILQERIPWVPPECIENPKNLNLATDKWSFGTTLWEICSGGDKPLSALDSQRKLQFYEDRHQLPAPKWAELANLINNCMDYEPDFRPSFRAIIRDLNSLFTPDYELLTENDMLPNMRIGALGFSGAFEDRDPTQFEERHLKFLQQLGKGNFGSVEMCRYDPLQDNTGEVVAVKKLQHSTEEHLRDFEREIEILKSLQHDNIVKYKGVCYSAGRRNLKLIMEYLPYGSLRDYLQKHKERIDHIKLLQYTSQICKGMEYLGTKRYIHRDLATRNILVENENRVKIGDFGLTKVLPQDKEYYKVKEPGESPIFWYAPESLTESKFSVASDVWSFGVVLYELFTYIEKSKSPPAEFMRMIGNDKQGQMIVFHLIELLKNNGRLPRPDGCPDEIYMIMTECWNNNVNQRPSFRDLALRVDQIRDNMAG

The structures appear in SMILES notation.

The IC50 is the concentration that inhibits the measured activity by half. In the case of `CCS(=O)(=O)N1CC(CC#N)(n2cc(-c3ncnc4[nH]ccc34)cn2)C1` [Baricitinib, reference compound], the IC50 stood at 830 pM.
